The entries are a selection whose mix differs from that of the whole data set. Records with an inconclusive call do not appear. The source made the active and inactive calls. The call rests on the fitted dose curve; in most records, active means well fitted cell-killing curve with a large enough effect; inconclusive means small, poorly fitted or top-dose-only effect, or effect the other way; inactive means flat fitted curve, though single readings scatter.
Potency means the concentration at half of the fitted maximal effect.

The assay in a line: qHTS for induction of synthetic lethality in tumor cells producing 2HG: qHTS for the HT-1080-NT fibrosarcoma cell line.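 Further: NT is the 2HG producing partner of a matched IDH1 knockdown line; nearly all actives have a fitted effect of over 55% in size.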 The following applies: HT-1080-NT fibrosarcoma viability, CellTiter-Glo ATP luminescence, 48 h. An excerpt: Unbiased genomic sequencing for 22 glioma genomes found recurrent mutation of IDH1 on chromosome 2q33, a gene encoding the cytosolic isoform of IDH1 associated with the tricarboxylic acid cycle (TCA) that catalyzes the oxidative decarboxylation of isocitrate, yielding alpha-ketoglutarate and CO2 via NADP+ to NADPH conversion. Subsequent studies confirmed the recurrent IDH mutations in up to 70% of secondary gliomas and in 10% of AML cases. […]
Suspensions of trypsinized HT-1080-NT cells were dispensed into white, tissue culture-treated, solid 1536-well plates at 5uL/well (750 cells/well final concentration) in RPMI medium supplemented with 5% FBS. […] The plates were measured on a PerkinElmer ViewLux plate reader for luminescent signal (clear filter, 1 sec exp). […]
Concentration-response curves were fitted to the signals arising from the resulting luminescence. The concentration-effect curves were then classified based on curve quality (r2), response magnitude and degree of measured activity, and compounds were subsequently categorized based on their curve class.
Turning to `CC[n+]1c(/C=C/N(C)c2ccccc2)oc2ccccc21`, the Potency is active: 2.06 µM.

The values are drawn from PubChem BioAssay AID686970 (National Center for Advancing Translational Sciences (NCATS), 2013).
